Chains of the proteins cited; added tags and fusions are not shown. Residues count along the entry.
UniProt P35968, 790-1356 limits assumed: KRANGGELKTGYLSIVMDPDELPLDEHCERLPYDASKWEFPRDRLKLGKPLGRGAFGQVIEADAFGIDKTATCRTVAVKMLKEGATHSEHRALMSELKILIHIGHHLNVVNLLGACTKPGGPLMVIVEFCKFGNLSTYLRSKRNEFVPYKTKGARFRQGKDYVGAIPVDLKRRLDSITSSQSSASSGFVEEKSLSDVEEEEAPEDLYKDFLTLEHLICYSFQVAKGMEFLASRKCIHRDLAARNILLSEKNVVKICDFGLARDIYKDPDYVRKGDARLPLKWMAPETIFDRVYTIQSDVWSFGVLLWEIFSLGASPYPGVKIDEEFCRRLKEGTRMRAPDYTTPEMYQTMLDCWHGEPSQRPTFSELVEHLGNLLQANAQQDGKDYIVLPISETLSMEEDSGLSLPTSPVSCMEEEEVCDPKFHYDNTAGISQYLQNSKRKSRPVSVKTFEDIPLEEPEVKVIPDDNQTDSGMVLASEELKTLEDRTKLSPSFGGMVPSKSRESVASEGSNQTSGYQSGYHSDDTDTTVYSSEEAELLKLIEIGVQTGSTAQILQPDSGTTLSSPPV
UniProt P15056, 416-766 limits assumed: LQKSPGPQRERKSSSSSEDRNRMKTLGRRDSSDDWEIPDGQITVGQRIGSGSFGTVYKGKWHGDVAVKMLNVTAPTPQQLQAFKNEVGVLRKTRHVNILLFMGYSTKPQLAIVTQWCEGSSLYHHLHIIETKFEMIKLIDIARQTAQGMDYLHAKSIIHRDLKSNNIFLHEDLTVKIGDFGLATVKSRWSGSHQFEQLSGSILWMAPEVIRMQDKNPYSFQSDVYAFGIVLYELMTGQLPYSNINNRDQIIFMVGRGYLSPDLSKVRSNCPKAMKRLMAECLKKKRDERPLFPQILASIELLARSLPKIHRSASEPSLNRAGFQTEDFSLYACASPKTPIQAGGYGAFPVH

In patent US9359338B2, “Cyclopropanecarboxamido-substitute aromatic compounds as anti-tumor agents” (Crown Bioscience Inc. (Taiwan), priority 2012, dated 2016):

Legend:
KDR kinase (790-1356 AA) = KDR kinase (790-1356 AA) (Homo sapiens (Human), UniProt P35968); test: Inhibitory activity at KDR kinase (Lance Ultra Ulight-TK assay); settings: read-out: KDR IC50
B-Raf kinase = B-Raf kinase (Homo sapiens (Human), UniProt P15056); test: Inhibitory activity at B-Raf kinase (ADP-GLO assay)
pERK in MDA-MB-231 cells = test: Inhibitory activity at pERK (In Cell Western, MDA-MB-231 cells); settings: read-out: MDA-MB-231 pERK IC50
PLC-PRF-5 cells = test: Inhibition of proliferation of PLC-PRF-5 cells (ATPlite); settings: read-out: PLC-PRF-5 cell proliferation IC50

## Cc1cc(NC(=O)Nc2ccc(F)c(C(C)(F)F)c2)ccc1Oc1ccnc(NC(=O)C2CC2)c1
KDR kinase (790-1356 AA)
  IC50: 9.5 nM
B-Raf kinase; read-out: B-Raf IC50, B-Raf kinase
  IC50: 21 nM
pERK in MDA-MB-231 cells
  IC50: 7.1 nM
PLC-PRF-5 cells
  IC50: 404 nM

## O=C(Nc1ccc(Oc2ccnc(NC(=O)C3CC3)c2)cc1)Nc1ccc(Cl)c(C(F)(F)F)c1 [Exe. 137]
B-Raf kinase; potency compared with sorafenib
  in vitro IC50 at B-Raf relative to sorafenib: four times more potent than that of sorafenib
